Test results reported in US10028961B2, “Therapeutically active compounds and their methods of use” (AGIOS PHARMACEUTICALS, INC., priority 2013, dated 2018).

Sequences of proteins named here, by UniProt entry; tags and fusion partners are left off.
UniProt O75874, whole entry R132C: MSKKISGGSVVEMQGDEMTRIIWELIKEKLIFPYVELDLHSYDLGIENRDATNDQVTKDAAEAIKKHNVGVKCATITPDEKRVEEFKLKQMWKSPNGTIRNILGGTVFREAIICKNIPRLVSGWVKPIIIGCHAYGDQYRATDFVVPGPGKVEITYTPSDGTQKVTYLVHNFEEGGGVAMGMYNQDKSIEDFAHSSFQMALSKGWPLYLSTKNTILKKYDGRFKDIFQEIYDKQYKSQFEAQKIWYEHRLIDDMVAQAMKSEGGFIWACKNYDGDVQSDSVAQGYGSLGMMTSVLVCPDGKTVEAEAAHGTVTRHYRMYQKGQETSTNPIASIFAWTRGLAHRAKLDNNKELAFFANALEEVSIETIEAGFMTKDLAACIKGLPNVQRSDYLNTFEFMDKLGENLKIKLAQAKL
UniProt O75874, whole entry, stated change not applied: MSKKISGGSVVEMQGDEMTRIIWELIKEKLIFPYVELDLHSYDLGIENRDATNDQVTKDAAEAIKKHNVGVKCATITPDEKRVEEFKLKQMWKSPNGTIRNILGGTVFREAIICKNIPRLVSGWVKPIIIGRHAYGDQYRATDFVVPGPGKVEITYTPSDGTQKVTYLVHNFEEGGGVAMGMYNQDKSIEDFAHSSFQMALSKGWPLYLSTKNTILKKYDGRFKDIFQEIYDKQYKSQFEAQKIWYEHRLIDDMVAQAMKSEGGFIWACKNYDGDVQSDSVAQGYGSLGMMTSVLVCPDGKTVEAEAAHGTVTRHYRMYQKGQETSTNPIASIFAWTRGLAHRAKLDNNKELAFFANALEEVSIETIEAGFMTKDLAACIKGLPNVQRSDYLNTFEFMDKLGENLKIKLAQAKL
UniProt O75874, whole entry R132H: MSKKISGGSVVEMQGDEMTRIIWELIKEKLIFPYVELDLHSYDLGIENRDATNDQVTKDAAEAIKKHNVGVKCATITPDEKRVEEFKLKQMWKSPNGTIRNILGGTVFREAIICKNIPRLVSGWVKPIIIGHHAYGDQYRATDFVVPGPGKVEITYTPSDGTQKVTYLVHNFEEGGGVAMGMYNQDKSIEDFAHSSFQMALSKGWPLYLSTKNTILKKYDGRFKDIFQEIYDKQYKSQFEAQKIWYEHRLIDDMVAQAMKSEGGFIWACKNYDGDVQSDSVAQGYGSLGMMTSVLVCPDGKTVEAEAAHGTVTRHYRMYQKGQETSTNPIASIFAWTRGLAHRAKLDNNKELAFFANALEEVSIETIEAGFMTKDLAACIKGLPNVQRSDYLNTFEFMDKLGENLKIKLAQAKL

Assays:
Format in all cases: biochemical
[1] = molecular target: IDH1 wt/IDH1 R132C heterodimer (Homo sapiens (Human), UniProt O75874, R132C); assay: In vitro assay for IDH1m R132C inhibitors, IDH1 wt/IDH1 R132C heterodimer, NADPH depletion (diaphorase/resazurin); conditions: NADPH/NADP
Experimental: (§1) The following describes the experimental procedures that can be used to obtain data on columns 2 and 4 of Table 4 and column 2 of Table 5.
(§2) In the primary reaction, the reduction of α-KG acid to 2-HG is accompanied by a concomitant oxidation of NADPH to NADP. The amount of NADPH remaining at the end of the reaction time is measured in a secondary diaphorase/resazurin reaction in which the NADPH is consumed in a 1:1 molar ratio with the conversion of resazurin to the highly fluorescent resorufin.
(§3) The mixture of compound, enzyme, and cofactor is pre-incubated at room temperature for 1 hr prior to the addition of alpha-ketoglutarate. To perform the secondary reaction, 10 uL of 1× buffer containing 36 μg/ml diaphorase and […] resazurin is added to the primary reaction and incubated for a further 5 minutes at 25° C. Florescence is read on a Spectramax platereader at Ex 544 Em 590. Compounds or compound dilutions are prepared in 100% DMSO concentration and diluted 1:50 into the final reaction. […] IC50s are determined.
IDH1 or IDH2 wildtype (wt) and mutant heterodimers are expressed and purified by methods known in the art. For example, IDH1wt/R132m heterodimer is expressed and purified as follows. Co-expression of IDH1wt-his and IDH1R132C-flag is carried out in sf9 insect cells. Cells (25 g) are resuspended in 250 ml of 50 mM Tirs, 500 mM NaCl, pH7.4, at 4° C. with stirring. […]

[2] = molecular target: IDH1-R132H homodimer enzyme (Homo sapiens (Human), UniProt O75874, R132H); assay: In vitro assay IDH1-R132H homodimer, NADPH depletion assay with NADPH/NADP preincubation; conditions: 5 μM NADPH and 37.5 μM NADP
Experimental: The following describes the experimental procedures that can be used to obtain data on columns 3 and 5 of Table 5.
(§4) A test compound is prepared as 10 mM stock in DMSO and diluted to 50× final concentration in DMSO, for a 50 μl reaction mixture. IDH enzyme activity converting alpha-ketoglutarate to 2-hydroxyglutaric acid is measured using a NADPH depletion assay. In the assay the remaining cofactor is measured at the end of the reaction with the addition of a catalytic excess of diaphorase and resazurin, to generate a fluorescent signal in proportion to the amount of NADPH remaining. […] The reaction is started with the addition of 10 μl of Substrate Mix ([…], 5 mM alpha-ketoglutarate, in Assay Buffer) and the mixture is incubated for 60 minutes at room temperature.

[3] = molecular target: IDH1 wt/IDH1 R132H heterodimer (Homo sapiens (Human), UniProt O75874, R132H); assay: In vitro assay for IDH1m R132H inhibitors, IDH1 wt/IDH1 R132H heterodimer, NADPH depletion (diaphorase/resazurin); conditions: NADPH/NADP, not saturated
Experimental: as §1, §2
as §3, with “Florescence is read on a Spectramax platereader at Ex 544 Em 590.” left out
IDH1 or IDH2 wildtype (wt) and mutant heterodimers are expressed and purified by methods known in the art. […] Co-expression of IDH1wt-his and IDH1R132C-flag is carried out in sf9 insect cells. Cells (25 g) are resuspended in 250 ml of 50 mM Tirs, 500 mM NaCl, pH7.4, at 4° C. with stirring. […]

IDH1 R132C = IDH1 R132C (Homo sapiens (Human), UniProt O75874, R132C); assay: In vitro assay IDH1 R132C homodimer, NADPH depletion assay
Experimental: The following describes the experimental procedures that can be used to obtain data on columns 3 and 6 of Table 4.
as §4, with “90” for “60”
The concentration of NADPH and alpha-ketoglutarate in the Substrate Buffer is 20 μM and 1 mM, respectively.

| IC50 [1] | IC50 [2] | IC50 [3] | SMILES | IC50 (IDH1 R132C) |
| --- | --- | --- | --- | --- |
| 100 to 1000 nM | 100 to 1000 nM | 100 to 1000 nM | FC1(F)CC2(CC(Nc3nc(Nc4ccnc(C(F)(F)F)c4)nc(-c4cccc(C(F)(F)F)n4)n3)C2)C1 [Compound 257] | – |
| – | – | – | C[C@H](Nc1cc(N[C@@H](C)C2CC2)nc(-c2cccc(C(F)(F)F)n2)n1)C1CC1 [Compound 416] | > 1000 nM |
